Results on four molecules are retold here after PubChem BioAssay AID463215 (Sanford-Burnham Center for Chemical Genomics, 2010).

As usually defined, the inhibition is the percentage by which the read-out fell short of the control.

Only a part is listed here, and it is no random draw. Activity calls are given as the source filed them.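 Rule for the calls: active = inhibition of yeast growth at or above a set limit in either of two replicates at 10 µM; inactive = the rest.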

This assay is described as follows: TIM10 isogenic control strain growth inhibition – single concentration, luminescence, S. cerevisiae, counter-screen for tim10-1 synthetic lethality project, confirmation (AID 463215).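 Note: isogenic wild-type TIM10 control yeast grown in succinate dextrose medium; this counterscreen used the strain with wild-type TIM10; 0% = yeast with DMSO and 100% = medium wells lacking yeast.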 To be noted: BacTiter-Glo luminescence, 24 h, at 10 µM, active compounds read high. On the technique in general: Counterscreens check selectivity or assay interference.
In the case of `O=[N+]([O-])c1cc([N+](=O)[O-])c(CCNc2ccccc2)c([N+](=O)[O-])c1`, the inhibition is active: 72.5%.
The result for `CN(C)C(=O)c1cc([N+](=O)[O-])cc2c1-c1c(cc([N+](=O)[O-])cc1[N+](=O)[O-])C2=O` reads active: 91.3%.
Turning to `Cc1ccc(NCCc2c([N+](=O)[O-])cc([N+](=O)[O-])cc2[N+](=O)[O-])cc1`, the inhibition was inactive: 6.65%.
In the case of `O=[N+]([O-])c1cc([N+](=O)[O-])c(-c2ccn[nH]2)s1`, the inhibition is active: 81.7%.
